Assay results taken from patent publication US11413333B2, “Composition containing inducer of SIRT1 expression for preventing or treating sepsis or septic shock” (STEMDR INC., priority 2011, dated 2022).

What was measured:
mouse injected with LPS = experiment: Survival rate of mouse after injecting LPS after pre-treatment of adenovirus-SIRT1 or interferon beta; assay type: in vivo; conditions: interferon beta 1000 units per 20 g tail vein, LPS 15˜20 mg/kg after 30 minutes
Experimental: Adenovirus-LacZ, which is a control gene delivery system, and adenovirus-SIRT1, which is the SIRT1 gene delivery system, are injected into the mouse tail vein by 3×10^8 pfu (plaque forming unit), and LPS 15˜20 mg/kg after 48 hours. Then the survival rate of the mouse has been observed for 10 days.
Further, interferon beta 1000 units or the same amount of salt solution per 20 g of the mouse weight is injected into the mouse tail vein, and LPS 15˜20 mg/kg has been injected after 30 minutes. Then the survival rate of the mouse has been observed for 10 days.

[1] = tested on: macrophage originated from the mouse marrow; experiment: Secretion of pro-inflammatory and anti-inflammatory cytokines by LPS-treated macrophage (Elisa); assay type: cell-based; conditions: LPS 100 ng/ml 24 hours, adenovirus-SIRT1 10,000 MOI or interferon beta 100 units/ml, cell culture medium
Experimental: After infecting the macrophage with the adenovirus-SIRT1 by 10,000 MOI (multiplicity of infection), LPS 100 ng/ml has been injected for 24 hours. Further, LPS 100 ng/ml has been used along with interferon beta 100 units/ml for 24 hours, and then the amount of secretion of pro-inflammatory and anti-inflammatory cytokines of the cell culture medium has been measured by Elisa. The experiment has been performed three times, and the result has been expressed by the average±standard deviation.

mouse sepsis model (CLP) = experiment: Survival rate in mouse sepsis model induced by cecal ligation and Puncture (CLP); assay type: in vivo; conditions: interferon beta 1000 units per 20 g tail vein two hours after CLP operation
Experimental: In a mouse sepsis model, which is induced through cecal ligation and Puncture (CLP) surgery, the following experiment has been performed to check the survival rate change according to the injection of SIRT1 and interferon beta.
Adenovirus-LacZ or adenovirus-SIRT1 has been injected into the mouse tail vein by 3×10^8 pfu. After 24 hours, the anesthetic is injected into the abdominal cavity, and the sepsis has been caused through CLP. That is, after the center of the abdomen of the mouse is cut, the appendix is exposed to the outside so that the end of the ileocecal valve is ligated by the silk suture, two holes are made using a needle, and then a certain amount of fecal materials are discharged. The appendix as well as fecal materials were inserted again into the abdomen, then the abdomen was stitched, and then a physiological salt solution was injected through a hypodermic injection. After two hours of SLP operation, interferon beta 1000 units or the same amount of salt solution per 20 g of the mouse weight have been injected into the mouse tail vein.

SIRT1 protein expression = experiment: SIRT1 expression by western blot after treatment of LPS and interferon beta to macrophage originated from mouse marrow; assay type: cell-based, C57BL/6 mouse; conditions: interferon beta 100 units/ml (of 0, 100, 200, 500 units/ml)
Experimental: Femur and tibia marrow cells of C57BL/6 mouse have been differentiated in culture solution containing M-CSF (10 ng/ml), and then have been used as mouse macrophage. LPS (0, 100, 500, 1000 ng/ml) and interferon beta (0, 100, 200, 500 units/ml) have been injected to the macrophage by concentrations, and the SIRT1 expression amount has been compared by western blot. Further, the SIRT1 protein expression amount when LPS has been injected along with IFN-β blocking antibody has been measured.

B1: interferon beta (protein, UniProt P01574 22-187, looked up)
Interferon beta: MSYNLLGFLQRSSNFQCQKLLWQLNGRLEYCLKDRMNFDIPEEIKQLQQFQKEDAALTIYEMLQNIFAIFRQDSSSTGWNETIVENLLANVYHQINHLKTVLEEKLEKEDFTRGKLMSSLHLKRYYGRILHYLKAKEYSHCAWTIVRVEILRNFYFINRLTGYLRN
notes: cytokine that promotes the expression of SIRT1; SIRT1 expression inducer
In the case of B1, the “survival rate of the mouse after 10 days” value (mouse injected with LPS) is reported as 70%, the “IL-6 decrease relative to LPS treatment” value [1] is reported as 54% and the IL-10 increase [1] is reported as 4.7 times. The “MCP-1 change relative to LPS treatment” value [1] was “slightly decreased”, the “TNF-α decrease relative to LPS treatment” value [1] was 29% and the survival rate (mouse sepsis model (CLP)) was 76%. The SIRT1 expression (SIRT1 protein expression) was “most significantly increased”.
